The data set in a line: chemical stability in solution (D2O, NMR). It counts as physicochemical.

On to “7-(Phosphonooxymethoxy)-ursodeoxycholic acid tributylamine salt [compound 13a]”, for which the “chemical stability in solution” value is “chemical instability”.
For “3-(Phosphonooxymethoxy)-ursodeoxycholic acid tributylamine salt [compound 16]” the value was “chemical instability”.

The values are drawn from patent US9580459B2, “Water-soluble ursodeoxycholic acid prodrugs” (Metselex, Inc., priority 2013, dated 2017).
